Molecular target: T1, IcaR (Staphylococcus epidermidis, UniProt Q5HKQ1)
T1 sequence (Q5HKQ1 1-185): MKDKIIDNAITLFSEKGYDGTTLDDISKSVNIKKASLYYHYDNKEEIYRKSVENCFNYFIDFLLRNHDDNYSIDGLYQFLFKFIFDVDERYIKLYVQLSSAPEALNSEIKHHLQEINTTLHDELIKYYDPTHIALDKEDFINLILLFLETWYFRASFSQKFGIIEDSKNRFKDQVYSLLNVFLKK
Assay: isothermal titration calorimetry
Format: binding

Structure (SMILES): [H]/N=C(/N)N[C@H]1[C@H](O)[C@@H](O)[C@H](O[C@@H]2O[C@@H](C)[C@](O)(C=O)[C@H]2O[C@@H]2O[C@@H](CO)[C@H](O)[C@@H](O)[C@@H]2NC)[C@@H](N/C(N)=N\[H])[C@@H]1O [Streptomycin]
- Kd: 12.5 µM
